Yeast mating assay 2: variants of the scFv Ab-91

Binding partner: SARS-CoV-2 spike HR2 peptide, sequence PDVDLGDISGINAS.

Each scFv is VL, a (GGGGS)3 linker, VH, as in the parent Ab-91, and differs from it in the CDRs of the heavy chain only.
VL: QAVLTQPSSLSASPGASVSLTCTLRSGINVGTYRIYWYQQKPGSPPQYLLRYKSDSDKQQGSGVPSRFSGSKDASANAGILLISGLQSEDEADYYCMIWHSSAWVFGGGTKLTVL
VH: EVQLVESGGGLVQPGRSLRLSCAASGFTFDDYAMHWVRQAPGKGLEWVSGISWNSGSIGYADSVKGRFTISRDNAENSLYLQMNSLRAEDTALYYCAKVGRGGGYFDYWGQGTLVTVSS

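The parent was found by panning a naive human phage display library on the peptide. Variants in AAYL51 differ from the parent at up to three CDR positions; double and triple changes were sampled at random. The scFvs were displayed on barcoded MATa yeast, the peptide on MATalpha yeast. After mating in shaken culture at 30 °C for 16 h, diploids were selected and their barcode pairs sequenced. Each replicate has its own calibration line, from reference interactions of the BCL2 family. The assay was run in three technical replicates.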

Positions count from residue 1 of the parent VH; H35G puts G in place of H.
All variants listed here change G50 of the VH, counted from its first residue.
The Kd shown is the geometric mean over detected replicates; a lower Kd is a better binder.
"nd" marks a missing value. The strain was present, yet no cells mated with the target were sequenced in any replicate, which points to weak or no binding.
Entries are sorted by rising average, undetected variants last.

H35G/G50K/S63L: 3.3 µM (1 of 3 replicates).
G50A/A61G/D107M: 6.6 µM (2 of 3 replicates).
G26H/T28R/G50W: 6.6 µM (1 of 3 replicates).
G50R/G59K/D107H: 9.8 µM (2 of 3 replicates).
T28R/G50Q/G103V: 10 µM (2 of 3 replicates).
G50A/S52G/V64P: 14 µM (2 of 3 replicates).
G50D/G103R/F106T: 15 µM (1 of 3 replicates).
A33P/G50H/S55G: 23 µM (2 of 3 replicates).
G50W/A61R/V99M: 25 µM (1 of 3 replicates).
D31W/G50V/V99T: 27 µM (2 of 3 replicates).
G50M/I51S: 28 µM (2 of 3 replicates).
G50L/I51Q/Y108P: 69 µM (1 of 3 replicates).
M34F/G50V/I58V: 71 µM (1 of 3 replicates).
H35L/G50W/G102I: 180 µM (1 of 3 replicates).
D31Q/G50K/S55Y: 250 µM (3 of 3 replicates).
G50Y/Y60R/V99M: 310 µM (1 of 3 replicates).
G50M/V99A/Y105V: 490 µM (1 of 3 replicates).
G50V: nd (0 of 3 replicates).
G26H/G50M/S63K: nd (0 of 3 replicates).
G50M/A61C/R101E: nd (0 of 3 replicates).
G50C/D62K/G102I: nd (0 of 3 replicates).
D30A/G50T/K65Y: nd (0 of 3 replicates).
G50M/G102S/Y105T: nd (0 of 3 replicates).
G26P/G50W/S55D: nd (0 of 3 replicates).
G50H/A61L/G104C: nd (0 of 3 replicates).
G50C/S57H/F106I: nd (0 of 3 replicates).
G50C/D62M/G104Q: nd (0 of 3 replicates).
H35A/G50F/V99P: nd (0 of 3 replicates).
G50M/W53V/G59I: nd (0 of 3 replicates).
G50C/G102H: nd (0 of 3 replicates).
G50I/I51K/S63W: nd (0 of 3 replicates).
G50Q/Y60N/S63N: nd (0 of 3 replicates).
G50H/G100S: nd (0 of 3 replicates).
H35V/G50Q/N54Q: nd (0 of 3 replicates).
D30I/G50I/R101M: nd (0 of 3 replicates).
G50F/S55A/R101H: nd (0 of 3 replicates).

Empty control strains, which show no peptide, gave a signal in 21% of pairings with library AAYL51; the median was 34 µM and 95% of these signals were weaker than 1.8 µM. No background was subtracted.

Reference: Engelhart et al. 2022, doi:10.1038/s41597-022-01779-4. File: FLAb, binding data.